This note sets out measurements from patent publication US8394391B2, “Drug delivery vehicle that mimics viral properties” (University of Utah Research Foundation, priority 2007, dated 2013).

The data set is described as follows: Dynamic light scattering particle size as a function of pH. The class given is physicochemical. The following applies: control. On the procedure: Dynamic light scattering (Malvern Instrument) was used to determine the particle size of the virogels as a function of pH. […] Virogels were equilibrated at each pH for 1 hour before measurements were taken. As a control, the particle size of BSA was also measured as a function of pH.

As to bovine serum albumin [BSA], the “difference in particle size with changes in pH” value is reported as “no significant difference in particle size”.
